Values quoted from earlier work, collected in patent US11260118B2, “Immunogenic peptide composition” (Cancer Research Malaysia, priority 2017, dated 2022).

System: HNSCC
Details: combination of chemotherapy with cetuximab; cited from earlier work

cetuximab
improvement of median overall survival duration versus chemotherapy only: 2.6 months
